System: primary HSCs

## Cc1sc2c(c1C)C(c1ccc(Cl)cc1)=N[C@@H](CC(=O)OC(C)(C)C)c1nnc(C)n1-2 [JQ1, (S)-tert-butyl 2-(4-(4-chlorophenyl)-2,3,9-trimethyl-6H-thieno[3,2-f][1,2,4]triazolo[4,3-a][1,4]diazepin-6-yl)acetate]
  Kif26b log2(fold_change): −2.0125
  Kifc1 log2(fold_change): 0.8611
  Klhl13 log2(fold_change): 0.9742
  Klhl26 log2(fold_change): −0.3596
  LOC100616095 log2(fold_change): −0.8973
  Lama1 log2(fold_change): 0.9865
  Lama2 log2(fold_change): −0.5798
  Lamb2 log2(fold_change): 0.4221
  Lars2 log2(fold_change): −0.6395
  Lclat1 log2(fold_change): −0.4544
  Lepre1 log2(fold_change): −0.3157
  Leprel1 log2(fold_change): −0.5121
  Leprel2 log2(fold_change): −0.3874
  Lgals1 log2(fold_change): −0.4625
  Lhfp log2(fold_change): 0.4217
  Lims2 log2(fold_change): −1.8928
  Lmod1 log2(fold_change): −2.7688
  Lox13 log2(fold_change): −1.6979
  Lox14 log2(fold_change): −2.7091
  Lox log2(fold_change): −2.7213
  Loxl1 log2(fold_change): −0.363
  Loxl2 log2(fold_change): −0.3528
  Lphn1 log2(fold_change): 0.6029
  Lpp log2(fold_change): −0.8444
  Lrig3 log2(fold_change): −0.6347
  Lrrn2 log2(fold_change): −1.6153
  Lrrn4 log2(fold_change): −0.7786
  Ltbp1 log2(fold_change): −2.6745
  Ltbp2 log2(fold_change): −4.9117
  Lum log2(fold_change): 1.427
  Mad2l1 log2(fold_change): 0.8718
  Maged2 log2(fold_change): −0.5844
  Mageh1 log2(fold_change): −0.3127
  Man2b2 log2(fold_change): −0.5072
  Mapk8ip1 log2(fold_change): 1.101
  Mboat7 log2(fold_change): −0.7968
  Meg3 log2(fold_change): −0.8796
  Meis1 log2(fold_change): 0.8249
  Melk log2(fold_change): 0.6233
  Mfap4 log2(fold_change): −6.3503
  Mfap5 log2(fold_change): −6.5064
  Mfge8 log2(fold_change): 0.4139
  Mgp log2(fold_change): −2.6459
  Mki67 log2(fold_change): 0.7334
  Mlec log2(fold_change): −0.5749
  Mmgt2 log2(fold_change): −0.7004
  Mmp2 log2(fold_change): −0.6604
  Mmp11 log2(fold_change): 0.6115
  Mmp17 log2(fold_change): 1.56
  Mmp23 log2(fold_change): −2.9097
  Mpp2 log2(fold_change): −0.8039
  Mpzl1 log2(fold_change): −0.4362
  Mrap log2(fold_change): −5.3852
  Mras log2(fold_change): 0.4702
  Mrc2 log2(fold_change): 0.5435
  Mrgprf log2(fold_change): −2.7091
  Mrvi1 log2(fold_change): −2.3226
  Msx1 log2(fold_change): 0.5226
  Mxd4 log2(fold_change): 0.8047
  Myh10 log2(fold_change): −0.2233
  Myh11 log2(fold_change): −2.346
  Myl6 log2(fold_change): −0.275
  Myl9 log2(fold_change): −2.601
  Mylk log2(fold_change): −0.4574
  Myo1d log2(fold_change): −0.4602
  Myof log2(fold_change): −0.2331
  Naalad2 log2(fold_change): −3.1434
  Nav2 log2(fold_change): −0.8808
  Ncam1 log2(fold_change): −2.3364
  Ncapd2 log2(fold_change): 0.8923
  Ncapg2 log2(fold_change): 0.929
  Ncaph log2(fold_change): 1.061
  Ndc80 log2(fold_change): 0.5775
  Ndn log2(fold_change): −0.8354
  Ndrg2 log2(fold_change): −1.7138
  Nek2 log2(fold_change): 0.8335
  Nexn log2(fold_change): −2.2263
  Nfatc4 log2(fold_change): −3.0565
  Nid2 log2(fold_change): −0.2731
  Nkd1 log2(fold_change): 0.7012
  Nnmt log2(fold_change): −0.8991
  Npr2 log2(fold_change): −0.6889
  Npr3 log2(fold_change): −2.9719
  Nradd log2(fold_change): −0.7888
  Nts log2(fold_change): −1.6204
  Nuak1 log2(fold_change): −0.6648
  Nudt18 log2(fold_change): −0.7117
  Nuf2 log2(fold_change): 0.5595
  Numbl log2(fold_change): −0.3544
  Nusap1 log2(fold_change): 0.9007
  Oat log2(fold_change): 0.5311
  Obsl1 log2(fold_change): −1.7738
  Ogdhl log2(fold_change): −0.8041
  Olfm2 log2(fold_change): −3.6554
  Osbpl5 log2(fold_change): 0.4402
  Osr1 log2(fold_change): 0.6503
  P2ry14 log2(fold_change): −4.7389
  P4ha1 log2(fold_change): −0.4941
  P4ha3 log2(fold_change): −3.0265
  Palld log2(fold_change): −1.5296
  Paqr8 log2(fold_change): −0.5827
  Pbx1 log2(fold_change): 0.6233
  Pcolce log2(fold_change): −0.8139
  Pcsk5 log2(fold_change): −1.6254
  Pcsk6 log2(fold_change): 1.1413
  Pcyox1 log2(fold_change): 1.187
  Pde1a log2(fold_change): −1.6717
  Pde4dip log2(fold_change): −0.722
  Pdgfc log2(fold_change): −3.7166
  Pdgfrl log2(fold_change): −5.1348
  Pdia5 log2(fold_change): −0.7751
  Pdlim3 log2(fold_change): −4.1531
  Pdlim4 log2(fold_change): −1.7311
  Peg3 log2(fold_change): 2.024
  Peg10 log2(fold_change): 1.039
  Pfkfb4 log2(fold_change): −1.5699
  Pgcp log2(fold_change): −0.7169
  Pgm2 log2(fold_change): −0.7504
  Phlda3 log2(fold_change): −0.3766
  Phldb2 log2(fold_change): −0.3815
  Phyhd1 log2(fold_change): −2.3012
  Pkia log2(fold_change): 1.35
  Pkig log2(fold_change): −0.806
  Pla1a log2(fold_change): −3.9137
  Pla2g4a log2(fold_change): −0.8688
  Pla2g15 log2(fold_change): −0.4485
  Pla2r1 log2(fold_change): 0.9975
  Plac8 log2(fold_change): −1.882
  Plat log2(fold_change): 1.118
  Pld3 log2(fold_change): 0.4667
  Plekhg3 log2(fold_change): −0.4255
  Plod3 log2(fold_change): −0.8533
  Plp2 log2(fold_change): −2.055
  Plscr2 log2(fold_change): −2.11
  Plscr4 log2(fold_change): −0.4802
  Plxdc2 log2(fold_change): 0.439
  Pmepa1 log2(fold_change): −1.7518
  Pmm1 log2(fold_change): −0.3075
  Pmp22 log2(fold_change): −0.4263
  Podn log2(fold_change): −2.3482
  Polr3k log2(fold_change): −0.2305
  Pon3 log2(fold_change): −0.3857
  Popdc2 log2(fold_change): −1.6959
  Postn log2(fold_change): −3.2953
  Ppapdc1b log2(fold_change): −1.5748
  Ppp1r14a log2(fold_change): −1.7904
  Ppp2r5b log2(fold_change): −0.6772
  Pppde2 log2(fold_change): −0.4418
  Praf2 log2(fold_change): −0.7369
  Prc1 log2(fold_change): 0.6253
  Prdx2 log2(fold_change): −0.4976
  Prelid2 log2(fold_change): −2.8884
  Prelp log2(fold_change): 1.089
  Prickle1 log2(fold_change): −0.428
  Prkar1b log2(fold_change): −3.2629
  Prnp log2(fold_change): −0.5434
  Prrc1 log2(fold_change): −0.4987
  Prss35 log2(fold_change): 1.361
  Psd3 log2(fold_change): −0.5624
  Psrc1 log2(fold_change): −2.209
  Pstpip1 log2(fold_change): −5.1076
  Pter log2(fold_change): −2.1616
  Ptger3 log2(fold_change): −0.5801
  Ptgfrn log2(fold_change): −0.7379
  Ptgr1 log2(fold_change): 0.6805
  Ptgs2 log2(fold_change): −4.683
  Ptk2b log2(fold_change): −0.5496
  Ptms log2(fold_change): 1.352
  Ptpla log2(fold_change): −1.8584
  Ptplad2 log2(fold_change): −0.3185
  Ptprn log2(fold_change): −2.9328
  Ptrf log2(fold_change): 0.8162
  Pvrl2 log2(fold_change): −0.3051
  Pxmp4 log2(fold_change): 0.6931
  Pygb log2(fold_change): 0.6232
  Pygl log2(fold_change): −2.455
  Qpct log2(fold_change): 1.329
  Qsox1 log2(fold_change): −0.5335
  Rab7l1 log2(fold_change): −2.0329
  Rab15 log2(fold_change): −2.0667

— patent US20180325914A1, “INCREASING STORAGE OF VITAMIN A, VITAMIN D AND/OR LIPIDS” (Salk Institute for Biological Studies, priority 2014, published 2018)
